Our source for the IC50 values is BindingDB's records for doi:10.7270/Q2N29VCW (University of Pittsburgh, 2009).

By IC50 is commonly meant the concentration that gives 50% inhibition.

The target of the experiment is T1, Phosphotransferase (Trypanosoma brucei brucei (strain 927/4 GUTat10.1), UniProt Q38C41).
T1 sequence (Q38C41 whole entry): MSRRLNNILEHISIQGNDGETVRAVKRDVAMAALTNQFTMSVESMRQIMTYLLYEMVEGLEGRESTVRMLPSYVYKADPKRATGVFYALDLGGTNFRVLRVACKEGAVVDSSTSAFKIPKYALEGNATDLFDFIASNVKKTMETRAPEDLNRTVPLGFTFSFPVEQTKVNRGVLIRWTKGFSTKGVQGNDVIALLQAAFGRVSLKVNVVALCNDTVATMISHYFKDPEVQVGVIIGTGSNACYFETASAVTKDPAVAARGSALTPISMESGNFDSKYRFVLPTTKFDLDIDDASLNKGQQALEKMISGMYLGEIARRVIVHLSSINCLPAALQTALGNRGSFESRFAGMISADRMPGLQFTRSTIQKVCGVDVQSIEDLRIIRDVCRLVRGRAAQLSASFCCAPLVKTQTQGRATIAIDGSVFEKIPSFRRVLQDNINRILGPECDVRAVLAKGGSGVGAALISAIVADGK

The molecule `O=c1c2ccccc2[se]n1-c1ccccc1` [2-Phenyl-benzo[d]isoselenazol-3-one] had an IC50 of 901 nM.
